Measured affinities in a library of Ab-14 light chain variants

Binding partner: SARS-CoV-2 spike HR2 peptide, sequence PDVDLGDISGINAS.

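Phage display of a naive human antibody library on the peptide gave the parent. This is the validation round: designs drawn from the data on random variants, tested in the same kind of assay. Several design methods are mixed in this list. Affinity was read by AlphaSeq, a pooled yeast mating assay with surface-displayed partners. After mating in shaken culture at 30 °C for 16 h, diploids were selected and their barcode pairs sequenced. The ratio of observed to expected reads was calibrated, replicate by replicate, on BCL2-family standards whose Kd was known from biolayer interferometry. Mating was done six times.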

The variants keep the heavy chain, the linker and the frameworks of Ab-14 (scFv order VH, three GGGGS repeats, VL).
VH: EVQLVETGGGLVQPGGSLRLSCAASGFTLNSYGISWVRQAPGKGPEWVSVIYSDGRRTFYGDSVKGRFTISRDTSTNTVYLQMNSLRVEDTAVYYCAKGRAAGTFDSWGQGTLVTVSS
VL: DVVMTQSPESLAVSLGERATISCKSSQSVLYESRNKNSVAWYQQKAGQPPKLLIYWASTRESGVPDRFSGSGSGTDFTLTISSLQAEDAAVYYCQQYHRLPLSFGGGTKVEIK

Variants are written as CDR1, CDR2 and CDR3 of the light chain (limits as in the source). Parent: KSSQSVLYESRNKNSVA, WASTRES, QQYHRLPLS. The read-out is the apparent dissociation constant on a log10 scale (nM): the lower, the stronger. Replicates are averaged; those with no signal do not enter the mean. "nd" marks a missing value. The strain was present, yet no cells mated with the target were sequenced in that replicate, which points to weak or no binding. The authors' rule: three or more of the six replicates give a measured affinity, fewer mean a poor binder. Values of this round are not directly comparable with the first-round values of the same sequences. The parent sequence was in this pool as ten entries: three were never detected, three once, and four in most replicates, with averages from 0.34 to 2.37. Background: pairings of all light chain designs with three empty control strains gave a value in 4% of cases (median 2.64, 5th percentile 1.59). Values in that range, when seen in few replicates, are hard to tell from nonspecific mating.

| CDR-L1 | CDR-L2 | CDR-L3 | log10 Kd (nM) by replicate | log10 Kd (nM), mean |
|---|---|---|---|---|
| TISQMFLGESRNRNSVA | QASTREH | QSYDRLPLS | 1.14 / 1.26 / 0.93 / 1.09 / 0.65 / 1.25 | 1.05 |
| IITQSVMQESRNKSNVA | NTSERES | QQYARLPLI | 1.12 / 0.89 / 1.12 / 1.01 / 1.11 / 0.88 | 1.02 |
| TIGQSLMQGIRNRSNVA | EVSQRLN | QQYDRLPLI | 0.69 / 0.81 / 0.44 / 0.57 / 0.94 / 1.15 | 0.77 |
| HMSMLTMMGMKQRNSVA | QMTMREN | QQYDRLPLA | 0.72 / 0.94 / 0.55 / 0.45 / 1.13 / 0.62 | 0.74 |
| KSSISHLGEKRNKNSVA | EASTRES | QQYHRLPLS | 1.97 / 1.21 / 0.74 / 0.71 / 1.28 / 0.98 | 1.15 |
| KLSQSVLYESMNKNSVA | NASQRES | QQYHRLPLS | 0.77 / 0.45 / 0.44 / 0.20 / 0.29 / 0.51 | 0.44 |
| MLSDLNKMGVRNTQSVA | DNSTRGQ | QQYDRLPLS | 0.90 / 0.84 / 0.36 / 0.04 / 0.30 / 0.52 | 0.49 |
| KVSQSDLMESRNKNSVA | EASTRQS | QQYHRLPLS | 0.15 / -0.06 / -0.09 / -0.13 / -0.17 / -0.06 | -0.06 |
| KVSQSVLYESRNKNSVA | GASTRES | QNYHRLPLS | 0.10 / 0.35 / 0.07 / 0.29 / 0.37 / 0.26 | 0.24 |
| KIGDTLNQLMTKKNNVA | DLVMREN | QQYHRLPLS | 0.63 / 0.08 / 0.15 / 0.12 / 0.39 / 0.52 | 0.32 |
| TISQMSQLFSQTLNNVA | EVSTRLN | QQYDRLPLA | 1.22 / 1.38 / 1.03 / 1.15 / 1.22 / 0.89 | 1.15 |
| KLRQVTEIESFNKNSVA | QTETREN | QDYDRLPLS | nd / nd / nd / nd / nd / nd | nd |
| KVSQSDLYESRNKNSVA | GASTRES | QQYHRLPLS | -0.14 / -0.37 / -0.52 / -0.53 / -0.59 / -0.38 | -0.42 |
| TLSQMSGVEAVKHNSVA | ENSTREN | QQYDRLPLS | 2.91 / nd / 1.96 / 3.19 / 3.36 / 2.80 | 2.85 |
| KVSQSDLYESRNKNSVA | EASTRES | QSYHRLPLS | 0.18 / 0.11 / 0.12 / -0.14 / 0.05 / 0.20 | 0.09 |
| KLSQSDLYESRNKNSVA | HASTRCS | QQYHRLPLS | -0.27 / -0.09 / -0.05 / -0.38 / -0.32 / -0.18 | -0.21 |
| RFEDHISEKEGRHNSIA | EEHMRLD | QYYGRLPLA | nd / nd / 2.43 / 1.34 / 1.38 / 1.76 | 1.73 |
| KFSQSVLYELRTKNSVA | NASTRES | QQYHRLPLS | 0.11 / -0.23 / -0.15 / -0.03 / -0.01 / 0.08 | -0.04 |
| SLSESEREGFSHEQNIA | DGTEHMR | QQYFQLPLL | 1.54 / 1.05 / 1.36 / 0.72 / 1.13 / 1.76 | 1.26 |
| KLIQSVAMSSRNKDSIA | DNSTRFY | QQYHRLPLS | 0.59 / 0.93 / 0.96 / 1.32 / 0.81 / 0.84 | 0.91 |
| HITYGMYVSGRYKSNIA | QAETREK | QQYDRLPLM | 0.62 / 0.68 / 0.80 / 0.85 / 0.50 / 1.01 | 0.74 |
| KLLQTVLNGRYNRNNVA | HMTMRED | QQYFRLPLS | nd / 1.74 / 1.30 / 2.15 / 1.51 / 1.34 | 1.61 |
| TISMHTSLFSQTINNVA | EVSTREQ | QQYDRLPLA | 0.78 / 0.68 / 0.45 / 0.56 / 0.49 / 0.56 | 0.59 |

Further variants, results first:

| log10 Kd (nM) by replicate | log10 Kd (nM), mean | CDR-L1 | CDR-L2 | CDR-L3 |
|---|---|---|---|---|
| 0.61 / 0.91 / 1.19 / 0.82 / 0.68 / 0.67 | 0.81 | KLMTQVGHQMDHKNSIA | EVDMVAQ | QQYMHLPLI |
| nd / 1.21 / 2.94 / nd / 2.66 / nd | 2.27 | KSSQSVLYYSSNKNSVA | WASTRES | QQYHRLPLQ |
| -0.46 / -0.28 / -0.24 / -0.34 / -0.03 / -0.15 | -0.25 | KASQSDLYESRNKNSVA | GASTRES | QQYHRLPLS |
| 1.82 / 1.29 / 1.49 / 1.43 / 1.62 / 1.42 | 1.51 | KSSQSVLMEHRNKNFVA | KAETREI | QQYHRLPLS |
| 0.65 / 1.58 / 0.95 / 0.02 / 0.23 / 0.52 | 0.66 | HSSPSYAYESRNKNSVA | NASTRES | QQYHRLPLS |
| 0.70 / 0.61 / 0.29 / 0.68 / 0.53 / 0.79 | 0.60 | KSSQSVLYESFNKNHVA | AASTRES | QSYHRLPLS |
| 2.04 / 2.04 / 1.65 / 2.96 / 1.62 / 2.48 | 2.13 | MIEEGNAGEIKNSSNIA | SQDQKSD | QQYQRLPLI |
| 0.62 / 0.69 / 0.62 / 0.48 / 0.61 / 0.85 | 0.64 | KSSQSVLIESRNKNSVA | QASTRES | QQYHRLPLS |
| 0.99 / 1.61 / 1.45 / 0.68 / 1.69 / 0.66 | 1.18 | MMSMGYLGGMRAKNNVA | QESTREP | QQYHRLPLI |
| 0.76 / 0.84 / 1.06 / 0.76 / 1.18 / 0.87 | 0.91 | KVSQSDLCESRNKNSVA | DASTRES | QQYHRLPLS |
| -0.03 / -0.23 / -0.26 / -0.31 / -0.39 / 0.10 | -0.19 | KFSQSVLYESRTKNSVA | NASTRET | QQYHRLPLS |
| nd / 1.48 / nd / 0.49 / 0.75 / nd | 0.91 | RLQEDNQLGTNIGNNVA | EHQTVFD | QQYAHLPLQ |
| nd / 2.04 / nd / 2.53 / 1.95 / 3.21 | 2.43 | KLDQSVLRESRNKNSVA | WASWRES | QQAHRLPLS |
| 0.78 / 0.52 / 0.70 / 1.08 / 0.71 / 0.79 | 0.76 | MMSQVTALGQRHRNNVA | QTSMREN | QQYDRLPLI |
| nd / 1.81 / 0.81 / -0.05 / 0.94 / nd | 0.88 | KLEQSQQYESRNKNSVA | NASTRES | QQYHRLPLS |
| 0.85 / 1.02 / 0.24 / 0.66 / 0.79 / 0.63 | 0.70 | KSSQSVLYESRNKNSVA | SVSTRES | QQYHRLPLS |
| 1.54 / 1.37 / 1.34 / 1.86 / 1.91 / 1.80 | 1.64 | KLSMSMRFLTEQKNSIA | ELVTRMS | QQYHRLPLS |
| -0.03 / -0.11 / -0.13 / -0.20 / -0.22 / 0.08 | -0.10 | KLSQSVVYESRNKNSVA | NASTRLS | QQYHRLPLS |
| 0.98 / 0.96 / 0.18 / 0.59 / 0.58 / 0.77 | 0.68 | KVSQSLLYESRNSNSVA | WASTRES | QQYHRLPLS |
| 1.34 / 2.01 / 1.45 / 1.54 / 1.70 / 1.84 | 1.65 | MIGQMLGWESNKIHSVA | QANLRED | QQYDRLPLE |
| -0.14 / -0.28 / -0.23 / -0.40 / -0.42 / -0.09 | -0.26 | KLSQSWLYLSRNKNSVA | NASQRED | QQYHRLPLS |
| 0.58 / 0.62 / 0.70 / 0.53 / 0.53 / 0.70 | 0.61 | KMREDFYHGQVEMSAIA | DGEHLNM | QQYSHLPLS |
| nd / nd / nd / nd / nd / nd | nd | KGSQNVLYESRNKNSVA | WAVTRES | QQYHRLPLS |
| 1.40 / -0.99 / 0.63 / -0.85 / nd / -0.37 | -0.04 | KVSISYLGESRNKNSVA | EASTREG | QQYHRLPLS |

6 of these entries, quoted again:

CDR-L1	CDR-L2	CDR-L3	log10 Kd (nM) by replicate	log10 Kd (nM), mean
RLQEDNQLGTNIGNNVA	EHQTVFD	QQYAHLPLQ	nd / 1.48 / nd / 0.49 / 0.75 / nd	0.91
KSSQSVLYYSSNKNSVA	WASTRES	QQYHRLPLQ	nd / 1.21 / 2.94 / nd / 2.66 / nd	2.27
TIGQSLMQGIRNRSNVA	EVSQRLN	QQYDRLPLI	0.69 / 0.81 / 0.44 / 0.57 / 0.94 / 1.15	0.77
TISQMFLGESRNRNSVA	QASTREH	QSYDRLPLS	1.14 / 1.26 / 0.93 / 1.09 / 0.65 / 1.25	1.05
KVSQSDLYESRNKNSVA	EASTRES	QSYHRLPLS	0.18 / 0.11 / 0.12 / -0.14 / 0.05 / 0.20	0.09
KIGDTLNQLMTKKNNVA	DLVMREN	QQYHRLPLS	0.63 / 0.08 / 0.15 / 0.12 / 0.39 / 0.52	0.32

Values reported by Li et al. 2023, doi:10.1038/s41467-023-39022-2 (FLAb copy).